Values quoted from earlier work, collected in patent US7164021B2, “Opiate analogs selective for the δ-opioid receptor” (The Curators of The University of Missouri, priority 2002, dated 2007).
Marks after values point to notes of the source that are not given here.

The chains behind the UniProt entries cited, without tags or fusion partners.
UniProt P33535, whole entry: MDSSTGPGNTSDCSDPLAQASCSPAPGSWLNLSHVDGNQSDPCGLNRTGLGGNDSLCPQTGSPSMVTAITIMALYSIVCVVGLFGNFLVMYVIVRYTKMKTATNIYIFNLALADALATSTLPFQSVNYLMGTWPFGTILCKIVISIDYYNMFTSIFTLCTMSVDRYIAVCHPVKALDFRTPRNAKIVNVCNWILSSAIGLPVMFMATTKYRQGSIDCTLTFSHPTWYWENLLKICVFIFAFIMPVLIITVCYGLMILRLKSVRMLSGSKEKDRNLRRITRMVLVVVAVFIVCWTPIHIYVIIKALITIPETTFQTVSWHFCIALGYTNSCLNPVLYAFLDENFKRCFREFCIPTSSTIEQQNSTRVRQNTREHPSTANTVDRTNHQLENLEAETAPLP

Target: μ receptor (Rattus norvegicus, UniProt P33535)
Details: experimental value of the reference opioid; cited from earlier work

SMILES: Oc1ccc2c3c1O[C@H]1c4[nH]c5ccccc5c4C[C@@]4(O)[C@@H](C2)N(CC2CC2)CC[C@]314 [NTI, naltrindole]
- experimental affinity μ receptor (value in parenthesis): 7.19(7.19)#
